Earlier results, collected in US20230165867A1 (CHENGDU BAIYU PHARMACEUTICAL CO., LTD., priority 2020, published 2023).

Protein sequences, listed by entry. Tags and fused reporters are not part of them.
UniProt P78527, whole entry: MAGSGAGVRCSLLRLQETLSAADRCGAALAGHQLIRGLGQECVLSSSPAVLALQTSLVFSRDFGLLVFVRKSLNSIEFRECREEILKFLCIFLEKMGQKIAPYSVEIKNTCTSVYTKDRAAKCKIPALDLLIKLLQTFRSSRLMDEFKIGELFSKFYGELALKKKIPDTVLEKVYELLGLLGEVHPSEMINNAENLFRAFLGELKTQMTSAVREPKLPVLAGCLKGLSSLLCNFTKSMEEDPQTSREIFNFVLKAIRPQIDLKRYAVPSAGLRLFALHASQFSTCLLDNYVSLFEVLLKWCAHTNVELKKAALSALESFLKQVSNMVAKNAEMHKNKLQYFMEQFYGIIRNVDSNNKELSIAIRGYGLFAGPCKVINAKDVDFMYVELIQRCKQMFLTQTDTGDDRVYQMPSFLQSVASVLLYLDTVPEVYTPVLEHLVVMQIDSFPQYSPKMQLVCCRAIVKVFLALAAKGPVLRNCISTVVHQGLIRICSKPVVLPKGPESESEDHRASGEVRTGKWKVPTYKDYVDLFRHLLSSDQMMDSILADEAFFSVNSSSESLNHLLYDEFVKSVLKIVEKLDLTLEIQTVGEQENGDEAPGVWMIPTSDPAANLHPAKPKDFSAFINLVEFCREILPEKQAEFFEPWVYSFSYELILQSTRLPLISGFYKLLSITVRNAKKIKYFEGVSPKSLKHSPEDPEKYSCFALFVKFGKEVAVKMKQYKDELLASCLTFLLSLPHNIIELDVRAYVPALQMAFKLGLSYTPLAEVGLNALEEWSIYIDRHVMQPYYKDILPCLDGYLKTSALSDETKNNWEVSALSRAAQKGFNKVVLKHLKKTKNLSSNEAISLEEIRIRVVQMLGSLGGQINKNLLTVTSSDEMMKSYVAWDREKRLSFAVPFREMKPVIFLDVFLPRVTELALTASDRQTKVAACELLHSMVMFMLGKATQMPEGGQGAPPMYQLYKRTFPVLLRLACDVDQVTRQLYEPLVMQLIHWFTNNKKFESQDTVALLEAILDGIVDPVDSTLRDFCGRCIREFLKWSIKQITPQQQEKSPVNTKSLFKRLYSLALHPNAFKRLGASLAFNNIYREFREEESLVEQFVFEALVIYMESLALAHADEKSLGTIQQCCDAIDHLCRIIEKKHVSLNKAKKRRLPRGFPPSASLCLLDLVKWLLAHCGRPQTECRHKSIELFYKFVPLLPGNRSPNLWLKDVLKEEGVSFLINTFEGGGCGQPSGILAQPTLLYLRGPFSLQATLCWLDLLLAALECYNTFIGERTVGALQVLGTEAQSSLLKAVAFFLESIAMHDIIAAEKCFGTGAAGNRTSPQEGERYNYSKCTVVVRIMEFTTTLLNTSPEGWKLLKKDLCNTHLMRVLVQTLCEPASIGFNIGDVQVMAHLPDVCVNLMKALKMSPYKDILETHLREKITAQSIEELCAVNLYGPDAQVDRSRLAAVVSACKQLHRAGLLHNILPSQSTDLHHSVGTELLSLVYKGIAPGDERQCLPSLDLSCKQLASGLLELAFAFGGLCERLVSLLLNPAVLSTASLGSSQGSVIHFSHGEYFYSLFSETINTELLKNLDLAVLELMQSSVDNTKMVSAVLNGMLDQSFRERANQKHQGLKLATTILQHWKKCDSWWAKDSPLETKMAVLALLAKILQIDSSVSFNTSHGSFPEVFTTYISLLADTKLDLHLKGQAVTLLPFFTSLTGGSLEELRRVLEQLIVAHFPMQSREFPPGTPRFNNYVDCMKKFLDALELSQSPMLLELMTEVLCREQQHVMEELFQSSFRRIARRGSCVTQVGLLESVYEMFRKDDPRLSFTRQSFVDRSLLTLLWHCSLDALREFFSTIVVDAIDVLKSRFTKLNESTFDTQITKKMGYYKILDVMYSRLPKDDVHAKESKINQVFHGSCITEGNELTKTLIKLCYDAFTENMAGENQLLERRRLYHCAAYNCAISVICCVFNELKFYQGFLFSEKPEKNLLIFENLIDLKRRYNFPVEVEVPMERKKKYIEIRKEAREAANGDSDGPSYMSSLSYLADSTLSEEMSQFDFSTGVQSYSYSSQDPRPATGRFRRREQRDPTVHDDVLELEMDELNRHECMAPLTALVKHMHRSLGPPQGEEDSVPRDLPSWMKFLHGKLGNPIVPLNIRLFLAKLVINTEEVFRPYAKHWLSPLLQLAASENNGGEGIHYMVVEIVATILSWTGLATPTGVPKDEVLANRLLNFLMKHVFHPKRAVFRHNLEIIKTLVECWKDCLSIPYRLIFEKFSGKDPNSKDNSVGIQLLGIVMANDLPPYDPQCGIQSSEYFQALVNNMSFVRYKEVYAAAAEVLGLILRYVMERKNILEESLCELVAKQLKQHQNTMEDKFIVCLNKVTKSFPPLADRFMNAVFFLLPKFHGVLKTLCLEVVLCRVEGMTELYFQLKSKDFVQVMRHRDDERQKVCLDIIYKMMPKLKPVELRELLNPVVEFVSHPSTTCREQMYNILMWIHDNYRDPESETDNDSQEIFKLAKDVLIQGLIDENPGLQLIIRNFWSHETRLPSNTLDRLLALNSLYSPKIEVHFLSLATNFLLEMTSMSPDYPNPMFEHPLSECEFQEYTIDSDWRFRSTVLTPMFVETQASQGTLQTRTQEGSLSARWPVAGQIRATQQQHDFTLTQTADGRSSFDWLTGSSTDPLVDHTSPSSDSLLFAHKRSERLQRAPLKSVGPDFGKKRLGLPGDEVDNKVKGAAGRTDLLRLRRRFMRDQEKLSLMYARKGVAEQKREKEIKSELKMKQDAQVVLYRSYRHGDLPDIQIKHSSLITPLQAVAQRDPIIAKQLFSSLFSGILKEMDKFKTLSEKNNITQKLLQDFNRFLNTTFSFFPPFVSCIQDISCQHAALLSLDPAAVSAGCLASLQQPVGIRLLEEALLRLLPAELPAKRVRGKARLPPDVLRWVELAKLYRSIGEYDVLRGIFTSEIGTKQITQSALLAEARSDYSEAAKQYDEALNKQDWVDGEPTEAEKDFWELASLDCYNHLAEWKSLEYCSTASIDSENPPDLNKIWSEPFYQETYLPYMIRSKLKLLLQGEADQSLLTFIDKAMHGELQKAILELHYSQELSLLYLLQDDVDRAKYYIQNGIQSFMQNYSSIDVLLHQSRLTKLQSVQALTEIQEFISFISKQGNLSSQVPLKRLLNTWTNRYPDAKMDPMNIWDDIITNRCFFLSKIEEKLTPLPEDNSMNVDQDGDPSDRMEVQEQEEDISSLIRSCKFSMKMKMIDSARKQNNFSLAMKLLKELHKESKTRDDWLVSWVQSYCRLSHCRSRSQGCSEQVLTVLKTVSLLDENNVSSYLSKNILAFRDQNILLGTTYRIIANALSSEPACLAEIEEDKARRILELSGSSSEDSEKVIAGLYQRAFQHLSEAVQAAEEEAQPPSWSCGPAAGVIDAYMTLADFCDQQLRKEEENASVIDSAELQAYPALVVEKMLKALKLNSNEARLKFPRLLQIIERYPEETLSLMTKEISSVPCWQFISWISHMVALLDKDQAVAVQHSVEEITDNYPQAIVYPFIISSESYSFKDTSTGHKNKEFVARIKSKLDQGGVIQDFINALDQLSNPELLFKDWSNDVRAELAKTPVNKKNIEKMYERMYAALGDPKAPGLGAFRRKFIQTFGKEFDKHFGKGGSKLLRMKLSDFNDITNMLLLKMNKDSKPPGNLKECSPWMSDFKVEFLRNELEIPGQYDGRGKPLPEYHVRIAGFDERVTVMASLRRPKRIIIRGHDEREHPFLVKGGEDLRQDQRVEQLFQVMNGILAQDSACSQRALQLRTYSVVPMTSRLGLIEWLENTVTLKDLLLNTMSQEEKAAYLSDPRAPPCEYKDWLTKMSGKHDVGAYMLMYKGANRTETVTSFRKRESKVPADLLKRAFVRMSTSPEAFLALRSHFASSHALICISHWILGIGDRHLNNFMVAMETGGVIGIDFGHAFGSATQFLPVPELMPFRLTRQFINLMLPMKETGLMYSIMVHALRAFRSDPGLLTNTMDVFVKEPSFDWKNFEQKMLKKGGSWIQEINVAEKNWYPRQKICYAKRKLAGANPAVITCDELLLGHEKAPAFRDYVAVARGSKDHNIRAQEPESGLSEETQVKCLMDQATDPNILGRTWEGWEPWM

Target: DNA-PK (Homo sapiens, UniProt P78527)
Conditions: read-out: IC50 (DNA-PK); Sarkaria et al., 1998; cited from earlier work

For `COC[C@H]1OC(=O)c2coc3c2[C@@]1(C)C1=C(C3=O)[C@@H]2CCC(=O)[C@@]2(C)C[C@H]1OC(C)=O` [Wortmannin], the IC50 is listed as about 15 nM.
